Structures are written as SMILES.

Sequences of proteins named here, by UniProt entry; tags and fusion partners are left off.
UniProt Q61009, whole entry: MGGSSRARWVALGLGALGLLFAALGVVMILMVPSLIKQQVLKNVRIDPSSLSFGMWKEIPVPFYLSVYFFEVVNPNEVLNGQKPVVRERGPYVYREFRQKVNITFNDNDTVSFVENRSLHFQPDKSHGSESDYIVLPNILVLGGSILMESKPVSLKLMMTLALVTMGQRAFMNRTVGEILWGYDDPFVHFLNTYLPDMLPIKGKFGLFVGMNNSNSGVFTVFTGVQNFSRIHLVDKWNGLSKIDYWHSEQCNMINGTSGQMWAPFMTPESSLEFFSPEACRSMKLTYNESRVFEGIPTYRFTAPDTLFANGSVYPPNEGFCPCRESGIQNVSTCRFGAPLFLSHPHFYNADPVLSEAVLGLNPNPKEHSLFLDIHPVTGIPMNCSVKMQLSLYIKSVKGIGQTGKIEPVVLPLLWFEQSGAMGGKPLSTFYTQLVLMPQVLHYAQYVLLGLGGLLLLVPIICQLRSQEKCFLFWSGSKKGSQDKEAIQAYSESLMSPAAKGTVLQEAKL

The target in this test is murine SR-BI (Mus musculus, UniProt Q61009). The test can be described thus: DiI-HDL uptake assay (primary assay). The note with it: read-out: IC50, primary assay (DiI-HDL uptake / HDL-mediated lipid uptake); compound present during DiI-HDL exposure.
Turning to `CC(=O)N1CCc2cc(-c3nc(NC(=O)c4cccc(OC(F)(F)F)c4)sc3C)ccc21`, the IC50 was determined as 40 nM.

For `CCC(=O)N1CC(C)(C)c2cc(-c3csc(NC(=O)c4cc(OC)cc(OC)c4)n3)ccc21`, the IC50 was found to be 8 nM.

Turning to `CCC(=O)Nc1ccc(-c2csc(NC(=O)c3cccc(OC)c3)n2)cc1`, the IC50 is 66 nM.

For the origin of these results see patent publication US9951055B2, “Thiazole-based inhibitors of scavenger receptor BI” (THE BROAD INSTITUTE, INC., priority 2012, dated 2018).
